In patent US6433014B1, “Compounds consisting in particular of effectors of the central nervous system receptors sensitive excitatory amino acids, preparation and biological applications” (Centre National de la Recherche Scientifique (C.N.R.S.), priority 1997, dated 2002):
pEC50, pIC50: −log10 of the molar value. Where two headings read alike, the source gives them in different places.

The chains behind the UniProt entries cited, without tags or fusion partners. Residues count along the entry.
UniProt P31421, 19-872 limits assumed: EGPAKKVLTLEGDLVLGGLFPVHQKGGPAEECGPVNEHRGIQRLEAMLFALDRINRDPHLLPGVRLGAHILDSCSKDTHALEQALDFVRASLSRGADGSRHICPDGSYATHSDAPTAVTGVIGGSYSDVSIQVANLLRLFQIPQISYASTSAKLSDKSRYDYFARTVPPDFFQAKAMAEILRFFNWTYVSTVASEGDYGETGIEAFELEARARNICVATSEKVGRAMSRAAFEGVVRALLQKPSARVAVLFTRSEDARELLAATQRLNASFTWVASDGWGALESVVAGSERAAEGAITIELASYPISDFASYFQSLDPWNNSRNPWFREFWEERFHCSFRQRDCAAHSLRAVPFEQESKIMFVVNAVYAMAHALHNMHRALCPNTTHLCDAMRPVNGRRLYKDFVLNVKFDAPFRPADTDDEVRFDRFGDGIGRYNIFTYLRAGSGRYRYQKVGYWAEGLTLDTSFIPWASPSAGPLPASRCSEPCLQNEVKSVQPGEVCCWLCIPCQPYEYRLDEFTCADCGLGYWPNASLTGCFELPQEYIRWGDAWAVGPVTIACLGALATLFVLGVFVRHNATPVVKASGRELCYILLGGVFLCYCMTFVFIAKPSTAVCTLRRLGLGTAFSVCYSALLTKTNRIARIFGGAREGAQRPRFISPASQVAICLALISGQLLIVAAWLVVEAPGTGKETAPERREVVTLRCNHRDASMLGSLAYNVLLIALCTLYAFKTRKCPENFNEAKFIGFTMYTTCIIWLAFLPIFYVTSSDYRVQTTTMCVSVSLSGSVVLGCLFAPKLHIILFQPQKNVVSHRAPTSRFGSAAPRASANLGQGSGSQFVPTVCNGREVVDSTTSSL
UniProt P31423, 33-912 limits assumed: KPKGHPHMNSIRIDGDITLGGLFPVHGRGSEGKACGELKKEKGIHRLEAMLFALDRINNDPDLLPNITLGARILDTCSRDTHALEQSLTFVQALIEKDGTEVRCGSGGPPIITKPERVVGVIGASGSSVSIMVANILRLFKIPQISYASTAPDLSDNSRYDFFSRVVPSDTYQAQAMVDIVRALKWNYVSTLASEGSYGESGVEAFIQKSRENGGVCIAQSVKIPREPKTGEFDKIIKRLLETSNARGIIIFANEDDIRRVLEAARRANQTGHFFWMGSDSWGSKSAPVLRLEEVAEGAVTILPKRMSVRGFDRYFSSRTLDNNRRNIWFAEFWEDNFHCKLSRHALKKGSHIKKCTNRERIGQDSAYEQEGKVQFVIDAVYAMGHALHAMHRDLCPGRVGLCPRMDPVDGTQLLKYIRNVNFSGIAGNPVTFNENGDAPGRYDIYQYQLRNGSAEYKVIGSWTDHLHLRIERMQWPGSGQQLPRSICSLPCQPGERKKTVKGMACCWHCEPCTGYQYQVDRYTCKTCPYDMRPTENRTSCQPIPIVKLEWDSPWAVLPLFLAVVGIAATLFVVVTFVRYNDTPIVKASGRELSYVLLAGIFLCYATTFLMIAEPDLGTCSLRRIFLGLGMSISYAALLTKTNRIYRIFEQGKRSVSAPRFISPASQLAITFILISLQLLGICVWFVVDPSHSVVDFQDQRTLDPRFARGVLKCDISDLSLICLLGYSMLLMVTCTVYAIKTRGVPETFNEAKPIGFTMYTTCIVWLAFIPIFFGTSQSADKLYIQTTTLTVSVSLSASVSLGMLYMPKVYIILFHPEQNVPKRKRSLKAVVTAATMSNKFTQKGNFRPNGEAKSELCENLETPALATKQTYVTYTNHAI
UniProt P23385, 19-1199 limits assumed: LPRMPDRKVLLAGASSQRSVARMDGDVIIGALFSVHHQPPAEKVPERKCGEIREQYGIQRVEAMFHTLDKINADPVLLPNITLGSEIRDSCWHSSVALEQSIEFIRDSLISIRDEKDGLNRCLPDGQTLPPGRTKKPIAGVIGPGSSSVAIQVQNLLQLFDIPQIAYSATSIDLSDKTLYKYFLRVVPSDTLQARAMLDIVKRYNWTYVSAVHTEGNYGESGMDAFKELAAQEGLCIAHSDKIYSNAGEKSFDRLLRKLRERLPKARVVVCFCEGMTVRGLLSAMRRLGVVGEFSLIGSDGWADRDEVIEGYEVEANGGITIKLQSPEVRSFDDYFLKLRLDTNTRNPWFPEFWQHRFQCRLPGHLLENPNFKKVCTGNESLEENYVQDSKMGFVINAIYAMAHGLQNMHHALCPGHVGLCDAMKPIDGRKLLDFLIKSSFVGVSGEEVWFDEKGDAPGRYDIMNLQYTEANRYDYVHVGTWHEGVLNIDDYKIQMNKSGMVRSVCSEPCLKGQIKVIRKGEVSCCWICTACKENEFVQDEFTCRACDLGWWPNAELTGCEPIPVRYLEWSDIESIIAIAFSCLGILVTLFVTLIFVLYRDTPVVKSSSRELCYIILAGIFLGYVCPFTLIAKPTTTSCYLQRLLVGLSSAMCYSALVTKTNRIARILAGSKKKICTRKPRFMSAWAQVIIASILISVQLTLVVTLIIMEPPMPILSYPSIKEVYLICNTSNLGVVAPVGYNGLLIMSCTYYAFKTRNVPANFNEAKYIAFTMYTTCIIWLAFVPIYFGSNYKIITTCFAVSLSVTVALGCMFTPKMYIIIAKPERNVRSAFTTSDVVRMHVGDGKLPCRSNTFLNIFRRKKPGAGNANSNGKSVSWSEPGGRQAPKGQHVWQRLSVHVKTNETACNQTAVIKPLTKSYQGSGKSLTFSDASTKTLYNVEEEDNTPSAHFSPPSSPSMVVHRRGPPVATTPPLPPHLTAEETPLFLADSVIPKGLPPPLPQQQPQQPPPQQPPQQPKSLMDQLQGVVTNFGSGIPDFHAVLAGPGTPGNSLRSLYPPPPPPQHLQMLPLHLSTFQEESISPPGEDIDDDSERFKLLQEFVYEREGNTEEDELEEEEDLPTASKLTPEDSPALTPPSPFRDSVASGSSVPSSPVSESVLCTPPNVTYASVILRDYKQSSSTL

Assays:
mGluR2 = mGluR2 (Rattus norvegicus, UniProt P31421); test: accumulation of inositol phosphates in transfected HEK 293 cells expressing mGluR2 co-expressed with chimeric G protein; format: cell-based; settings: for pEC50: read-out: mGluR2 EC50 (agonist effect), IP accumulation; for pIC50: read-out: mGluR2 IC50 values (printed in KB column, footnote a), Glu = 20 μM
Protocol: The biological activity of ACPT-I, -II and -III was tested on transfected HEK 293 cells expressing mGluR1a, mGluR2 or mGluR4a, chosen as prototypes of the metabotropic receptors of groups I, II or III.
For this purpose, the activation of phospholipase C was measured (accumulation of inositol phosphates).
The HEK 293 cells are cultured in a Dulbecco's modified Eagle medium (DMEM, Gibco BRL) to which 10% of foetal calf serum has been added, and transfected by electroporation as previously described by Gomeza et al., Molecular Pharmacology, 1996, 50:923-930 (1996).
The electroporation is carried out in a total volume of 300 μl with 10 μg of supporting DNA, plasmid DNA containing mGluR1a (0.3 μg), mGluR2 (2 μg) or mGluR4a (5 μg) and 10^7 cells.
In order to allow activation of the phospholipase C by mGluR2 and mGluR4a, which effect is easier to measure than the inhibition of the production of cAMP, these receptors are co-expressed with chimeric G, Gqo5 and Gqi9 proteins, as described by Gomeza. The pharmacological profiles of these 2 receptors determined according to this method, have already been described as identical to those characterized by measuring the inhibition of the formation of cAMP.
Determination of the accumulation of inositol phosphates (IP).
The determination of the accumulation of IP in transfected cells is carried out as described by Gomeza after labelling the cells for approximately 14 hours with [^3H]-myo-inositol (23.4 Ci/mol, NEN, France).
Stimulation is carried out for 30 minutes in a medium containing 10 mM LiCl in the presence of the drugs tested. The formation of the basic IP is determined after 30 minutes of incubation in the presence of 10 mM LiCl and pyruvate glutamate transaminase (1 U/ml) degrading the glutamate (Glu) and 2 mM of pyruvate in order to avoid the possible effects of Glu released by the cells. The results are expressed in the quantity of IP product with respect to the radioactivity present in the membranes.

mGluR4a = mGluR4a (Rattus norvegicus, UniProt P31423); test: accumulation of inositol phosphates in transfected HEK 293 cells expressing mGluR4a co-expressed with chimeric G protein; format: cell-based
mGluR1a = mGluR1a (Rattus norvegicus, UniProt P23385); test: accumulation of inositol phosphates (phospholipase C activation) in transfected HEK 293 cells expressing mGluR1a; format: cell-based; settings: for pEC50: read-out: mGluR1a EC50 (agonist effect), IP accumulation; for pIC50: read-out: mGluR1a IC50 values (printed in KB column, footnote a), Glu = 20 μM
[1] = test system: ionotropic receptors (NMDA, AMPA and kainate receptors); test: patch clamp recording of granule cells of the cerebellum; format: cell-based, mice; settings: ACPT 1 mM; NMDA or kainate 100 μM
Protocol: Culture and recording of the granule cells of the cerebellum
The granule cells of the cerebellum are cultured from 7 day-old baby mice as described by Van-Vliet, B. J., J. of Neurochemistry, 1989, .52, 1229-1239.
Recording is carried out using the technique known as a “patch clamp” in the full cell configuration and the molecules are applied using a rapid application technique.
Initially, tests were carried out in order to check whether the ACPT's were capable of activating or exercising an antagonist effect vis-à-vis the ionotropic receptors. These tests have shown that none of the ACPT enantiomers induces a current when they are placed in contact with the granule cells of the cerebellum at a concentration of 1 mM.
In the same batches, currents are on the contrary seen to be induced by NMDA (100 μM) or kainate (100 μM, which concentration allows activation of both the AMPA and kainate receptors), as envisaged given the activation of the NMDA and non-NMDA receptors. The antagonist effects of ACPT-I, ACPT-II and ACPT-III (1 mM) were also examined in responses induced by NMDA or kainate (100 μM).

SMILES | inhibition of the responses induced by Glu in cells expressing mGluR2, in words (mGluR2; listed as ACPT-III (+)) | inhibition of the responses induced by Glu in cells expressing mGluR2, in words (mGluR2; listed as ACTP-IIIb) | pEC50 (mGluR2; HEK 293 cells) | pIC50 (mGluR2) | agonist effect on mGluR4, in words (mGluR4a) | inhibition of the formation of IP induced by Glu in cells expressing mGluR1a, in words (mGluR1a; listed as ACPT-III (+)) | inhibition of the formation of IP induced by Glu in cells expressing mGluR1a, in words (mGluR1a; listed as ACTP-IIIb) | pEC50 (mGluR1a; HEK 293 cells) | pIC50 (mGluR1a) | inhibition of the responses induced by Glu in cells expressing mGluR2, in words (mGluR2; listed as ACPT-III (−)) | inhibition of the responses induced by Glu in cells expressing mGluR2, in words (mGluR2; listed as ACTP-IIIa) | antagonist effect vis-à-vis Glu on mGluR4a, in words (mGluR4a) | slope of Shild curve, mGluR4a (mGluR4a) | inhibition of the formation of IP induced by Glu in cells expressing mGluR1a, in words (mGluR1a; listed as ACPT-III (−)) | inhibition of the formation of IP induced by Glu in cells expressing mGluR1a, in words (mGluR1a; listed as ACTP-IIIa) | inhibition of the responses induced by Glu in cells expressing mGluR2, in words (mGluR2) | Kb (mGluR2; read-out: mGluR2 KB (antagonist effect), HEK 293 cells, IP accumulation induced by Glu, Shild representation) | inhibition of responses induced by NMDA or kainate [1] | inhibition of the formation of IP induced by Glu in cells expressing mGluR1a, in words (mGluR1a) | Kb (mGluR1a; read-out: mGluR1a KB (antagonist effect), HEK 293 cells, IP accumulation induced by Glu, Shild representation)
NC1(C(=O)O)C[C@H](C(=O)O)[C@@H](C(=O)O)C1 | inhibit the Glu responses, with a low strength | antagonists of mGluR1 and mGluR2 | < 2.52 | 3.82 | agonist of mGluR4 | inhibit the Glu responses, with a low strength | antagonists of mGluR1 and mGluR2 | < 2.52 | 3.00 |  |  |  |  |  |  |  |  |  |  | 
NC1(C(=O)O)C[C@@H](C(=O)O)[C@H](C(=O)O)C1 |  |  | < 2.52 | 3.52 |  |  |  | < 2.52 | 3.00 | inhibit the Glu responses, with a low strength | antagonists of mGluR1 and mGluR2 | antagonist of mGluR4 | 0.877 | inhibit the Glu responses, with a low strength | antagonists of mGluR1 and mGluR2 |  |  |  |  | 
N[C@@]1(C(=O)O)C[C@H](C(=O)O)[C@H](C(=O)O)C1 |  |  | < 2.52 |  | agonist of mGluR4 |  |  | < 2.52 |  |  |  |  |  |  |  | not obtained | > 3000 µM | 10% | inhibit the formation of the IP's induced by the Glu | > 1000 µM
